This is an account of results in article PMC3956872 (PLoS ONE, 2014).

The subject of the data set is O=C(O)[C@@H]1CCCN1. The data set is described as follows: cells, lysate or membranes. Conditions: T. cruzi epimastigotes overexpressing TcAAAP069 (endogenous background uptake present), 28 °C, PBS, no D-proline, labelled compound.

Take “TcAAAP069 (Trypanosoma cruzi strain CL Brener)”: the Km was 0.38 (± 0.05) mM.
